Measurements reported in ChEMBL document CHEMBL1144296, “3,4-Dihydro-2H-benzoxazinones are 5-HT(1A) receptor antagonists with potent 5-HT reuptake inhibitory activity” (Bioorg Med Chem Lett, 2005).

By UniProt entry, the sequences of proteins in these tests, tags left out.
UniProt P08908, whole entry: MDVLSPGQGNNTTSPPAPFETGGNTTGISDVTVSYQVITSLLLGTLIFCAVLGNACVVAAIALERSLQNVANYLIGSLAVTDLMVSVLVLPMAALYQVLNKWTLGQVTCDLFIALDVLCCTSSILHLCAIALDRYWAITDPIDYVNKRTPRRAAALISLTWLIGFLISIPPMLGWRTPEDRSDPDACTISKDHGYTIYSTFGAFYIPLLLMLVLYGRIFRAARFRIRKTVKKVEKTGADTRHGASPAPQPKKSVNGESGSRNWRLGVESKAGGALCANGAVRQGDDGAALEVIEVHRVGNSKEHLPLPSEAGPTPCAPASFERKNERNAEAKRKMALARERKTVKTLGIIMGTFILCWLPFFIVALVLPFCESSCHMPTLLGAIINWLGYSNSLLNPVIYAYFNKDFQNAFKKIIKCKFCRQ

Biological target: 5-hydroxytryptamine receptor 1A (Homo sapiens, UniProt P08908)
Test: Mean negative logarithim of binding affinity was measured for the human 5-hydroxytryptamine 1A receptor; n>/=3

Cc1ccc2c(OCCN3CCC(Cc4ccc5c(c4)NC(=O)CO5)CC3)cccc2n1
Ki: 0.316 nM
